Data on 1 substance can be found in US20050239754A1, “S-[2-[(1-Iminoethyl)amino]ethyl]-2-methyl-L-cysteine salicylate monohydrate crystalline salt” (priority 2003, published 2005).

For the substance “S-[2-[(1-Iminoethyl)amino]ethyl]-2-methyl-L-cysteine salicylate monohydrate”, the “Water absorbed in moisture balance measurement” value (80% RH) is on record as “less than half of one percent”. The Hygroscopicity entry (moisture balance / DVS moisture sorption) is “non-hygroscopic”.
